For this test, the system named is DNFB-induced dermatitis in C3H/HeN mice. Particulars: 10 mg/kg orally once a day, 24 hours after DNFB application at fifth application, female C3H/HeN mice.

Like-named read-outs stand apart in the source and are kept apart here.

This is an account of results in US8507714B2, “7-membered ring compound and method of production and pharmaceutical application thereof” (Daiichi Sankyo Company, Limited, priority 2004, dated 2013).

Consider `CC[C@@H](NC(=O)N1CC(=O)NC[C@H](Cc2cc(Cl)ccc2OC)C1=O)c1ccc(C(=O)O)c(N)c1` [Compound 150, 2-amino-4-[(1R)-1-({[(6S)-6-(5-chloro-2-methoxybenzyl)-3,7-dioxo-1,4-diazepan-1-yl]carbonyl}amino)propyl]benzoic Acid], for which the “inhibition rate of the skin reaction” value (listed as compound 150) came to 29.9%. Consider `CC[C@@H](NC(=O)N1CC(=O)NC[C@H](Cc2cc(Cl)ccc2OC)C1=O)c1ccc(C(=O)O)c(N)c1` [Compound 179B, 2-amino-4-[(1R)-1-({[(6S)-6-(5-chloro-2-methoxybenzyl)-3,7-dioxo-1,4-diazepan-1-yl]carbonyl}amino)propyl]benzoic Acid Monoacetic Acid Solvate], for which, where the note is “listed as compound 179B”, the “inhibition rate of the skin reaction” value amounted to 32.8%. As to `CC[C@@H](NC(=O)N1CC(=O)NC[C@@H](Cc2cc(Cl)ccc2OC)C1=O)c1ccc(C(=O)O)c(N)c1` [2-amino-4-[(1R)-1-({[(6R)-6-(5-chloro-2-methoxybenzyl)-3,7-dioxo-1,4-diazepan-1-yl]carbonyl}amino)propyl]benzoic Acid], the “inhibition rate of the skin reaction” value is 20.0%.
